Measured values from publication PMC5748751, “Study of Structure and Permeability Relationship of Flavonoids in Caco-2 Cells” (Nutrients, 2017).

System: Caco-2 cell monolayer
Assay: Cellular accumulation (CA) of flavonoids in Caco-2 cell monolayer
Conditions: both sides (CA A to B and CA B to A)

CA: < 0.26 µmol/g
SMILES: COc1ccc(CCC(=O)c2c(O)cc(O[C@@H]3O[C@H](CO)[C@@H](O)[C@H](O)[C@H]3O[C@@H]3O[C@@H](C)[C@H](O)[C@@H](O)[C@H]3O)cc2O)cc1O [Compound 30, Neohesperidin dihydrochalcone]
